Apparent affinities of Ab-14 variants for a coronavirus HR2 peptide

All variants were tested on one target, the spike HR2 peptide PDVDLGDISGINAS (SARS-CoV-2).

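The starting antibody came from a phage panning campaign against this peptide. This is the validation round: designs drawn from the data on random variants, tested in the same kind of assay. Group labels follow the data file (Ctrl: baseline library sampled from a position-specific scoring matrix, with some repeated check sequences; Rand: our label for a block that the file lists under HC and that is probably the random mutants of the ten best first-round binders; GP: Gaussian process model; GPLM: also part of the Gaussian process libraries; HC: hill climbing; Gen: genetic algorithm; Gibbs: Gibbs sampling; a sequence that several methods proposed may carry one label only). The assay is AlphaSeq: two haploid yeast populations carry antibody and antigen on their surface. After mating in shaken culture at 30 °C for 16 h, diploids were selected and their barcode pairs sequenced. Read counts were normalised to the haploid input and turned into Kd by a linear fit to BCL2-family pairs of known affinity, for each replicate. Mating was done six times.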

Each scFv is VH, the linker GGGGSGGGGSGGGGS, VL, as in the parent Ab-14, and differs from it in the CDRs of the heavy chain only.
VH: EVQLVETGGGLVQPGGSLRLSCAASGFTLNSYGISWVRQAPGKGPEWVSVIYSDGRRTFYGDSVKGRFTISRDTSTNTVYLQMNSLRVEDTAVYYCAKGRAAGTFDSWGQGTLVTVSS
VL: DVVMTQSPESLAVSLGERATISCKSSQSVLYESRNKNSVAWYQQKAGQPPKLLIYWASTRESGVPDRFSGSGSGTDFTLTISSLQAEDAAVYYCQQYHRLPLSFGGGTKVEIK

Changes read parent residue, position, new residue, counted from the first residue of the VH shown. Variants here have at most six changes. Numbers give log10(Kd / nM), so 0 is 1 nM and 3 is 1 µM. Smaller is tighter. A mean of the replicates is given; it leaves out those without a signal. "nd" means that the variant was in the library but no mating with the target was seen in that replicate; the authors take this as a sign of poor binding, and no number exists. Nonspecific signal, from three strains lacking the peptide, appeared in 1% of pairings of all heavy chain designs, centred on 2.08 (5% of these signals below 0.84); values are not corrected for it. Also given: how often the same scFv was detected with the empty control strains.

Variant G61S/A101V/A102G/S107V [GP_HC] gave 2.52, 1.29, 1.75, 1.48, 1.59, 1.35 (mean 1.66; controls 0 of 18). Variant G26S/S31E/G61T/A101F [GP_HC] gave nd, nd, nd, nd, nd, nd (controls 1 of 18). With T28N/A101V [Ctrl+GPLM_Gen] the result was 0.96, 0.93, 1.09, 0.94, 1.62, 0.66; 1.03, 0.75, 1.57, 1.28, 1.22, 1.17 (mean 1.10; controls 0 of 36). With T28S/S31D/G61I/S63H/R100K [GP_HC] the result was 0.34, 0.38, 0.14, 0.35, 0.44, 0.70 (mean 0.39; controls 2 of 18). With G26Q/T28E/S63D/A101M/F105N [Ctrl] the result was nd, nd, nd, nd, nd, nd (controls 0 of 18). Variant S31E/A101V/S107K [GPLM_Gen] showed 0.32, 0.33, 0.78, 0.29, 0.11, 0.05 (mean 0.32; controls 0 of 18). For T28H/S31D/G61V/A101L [GP_HC], the assay gave nd, 0.98, 0.65, 1.72, nd, nd (mean 1.11; controls 0 of 18).

Variant T28S/S31E/A101E/S107T [GPLM_Gen] gave -0.24, 0.17, -0.42, -0.45, -0.30, -0.25 (mean -0.25; controls 0 of 18). Variant T28N/S31E/A101F [GPLM_HC] gave 1.25, 0.86, 0.34, nd, 1.56, -0.03 (mean 0.79; controls 0 of 18). For I51E/G61S/A102G [Rand], the assay gave nd, nd, 1.05, 1.22, nd, 0.64 (mean 0.97; controls 0 of 18). Variant T28N/G61A/S63A/A101T [GPLM_Gibbs] gave 0.20, -0.02, 0.03, -0.09, 0.14, 0.31 (mean 0.09; controls 1 of 18). Variant G61S/S63R/R100Q/A101E [GP_HC] gave nd, 0.41, 1.53, 0.50, 0.70, 0.22 (mean 0.67; controls 0 of 18). Variant L29V/S31E/K65S/S107Q [Ctrl] gave nd, nd, 1.09, nd, 1.92, nd (mean 1.50; controls 0 of 18). For G61D/S63A/R100Q/A101L [GPLM_HC], the assay gave 1.12, 0.85, 1.39, 0.67, 0.92, 1.18 (mean 1.02; controls 1 of 18).

Variant T28S/G61K/A101Q [GPLM_Gibbs] showed 1.38, 1.15, 0.61, 0.77, 1.37, 1.19 (mean 1.08; controls 0 of 18). Variant N30E/S31M/D106T [GP_HC] showed nd, nd, nd, nd, nd, nd (controls 0 of 18). For G61I/R100Q/A101T [GPLM_Gen], the assay gave nd, 1.92, nd, 2.15, 1.48, 2.42 (mean 1.99; controls 1 of 18). Variant S31D/F59Y/D106V [GP_HC] gave nd, nd, nd, nd, nd, nd (controls 0 of 18). Variant T28E/R100K/A101E [GPLM_Gibbs] showed 0.66, 0.86, 0.35, 0.44, 0.46, 0.38 (mean 0.53; controls 2 of 18). With N30E/S53A/S107Q [GP_Gen] the result was 0.34, -0.10, -0.07, 0.29, 0.31, 1.02 (mean 0.30; controls 1 of 18). For R56Q/F59A [Ctrl], the assay gave 1.60, 1.04, 1.71, 1.41, 1.58, 2.45 (mean 1.63; controls 0 of 18).

Variant T28D/A101M [GPLM_Gen] gave nd, 1.58, nd, nd, nd, nd (controls 0 of 18). Variant V64F/F105W [Ctrl] showed nd, nd, nd, nd, nd, nd (controls 0 of 18). Variant T28S/S31M/F59Y [Ctrl] showed 1.04, 0.90, 1.01, 1.06, 0.72, 0.65 (mean 0.90; controls 0 of 18). Variant S31E/G61A/A101Y [GP_HC] gave nd, nd, -0.31, -0.59, -0.37, -0.88 (mean -0.54; controls 0 of 18). With T28S/S53A/S63Q/R100K/S107R [GP_Gibbs] the result was 0.30, 0.99, 0.46, 0.33, 0.43, 0.45 (mean 0.50; controls 0 of 18). With S31E/G61A/S107W [Ctrl] the result was 1.60, nd, 2.46, 2.26, 2.33, 2.85 (mean 2.30; controls 1 of 18). With S31E/G61T/A101L/D106V [GP_HC] the result was nd, nd, nd, nd, nd, nd (controls 0 of 18).

With R56M/A101V/S107T [GPLM_Gibbs] the result was nd, 1.82, 0.76, 2.97, 0.92, 1.19 (mean 1.53; controls 0 of 18). Variant T28Q/F59A/R100Q [GP_Gen] showed 0.57, -0.22, -0.13, -0.86, 0.04, -0.07 (mean -0.11; controls 2 of 18). With T28S/G61A/S63Q/R100N [GPLM_Gen] the result was 0.29, 0.08, 0.16, 0.08, -0.22, 0.37 (mean 0.13; controls 2 of 18). Variant T28E/R100S/A101E/S107T [GP_Gen] showed -0.52, nd, -0.13, nd, nd, 0.03 (mean -0.21; controls 0 of 18). With T28V/G61A/R100K/A101T [GPLM_Gibbs] the result was 0.66, 0.91, 0.76, 1.26, 0.79, 1.72 (mean 1.02; controls 0 of 18). Variant T28D/R100K/A101R [GPLM_Gen] showed 0.69, 0.74, 1.29, 1.09, 0.94, 1.38 (mean 1.02; controls 0 of 18). For I34Y/G61D/S63V/G99C/R100Q/A101L [Rand], the assay gave nd, nd, nd, nd, nd, nd (controls 0 of 18).

For T28K/S53A/A101T [GP_Gen], the assay gave -0.47, -0.84, -0.78, -0.87, -0.47, -0.38 (mean -0.64; controls 0 of 18). Variant N30A/R56P/R100E [Ctrl] showed nd, nd, nd, nd, nd, nd (controls 0 of 18). Variant S31Q/G61T/A101F [Rand] gave -0.02, 0.27, -0.55, 0.24, 0.16, 0.44 (mean 0.09; controls 0 of 18). With F27S/G61D/R100Q/A101L [Rand] the result was 1.57, 1.68, nd, 2.74, 1.09, nd (mean 1.77; controls 0 of 18). Variant T28S/G61A/R100N/S107A [GPLM_Gen] showed 0.27, 0.25, 0.18, 0.43, 0.31, 0.46 (mean 0.32; controls 1 of 18). With R56I/G61E/S107R [Ctrl] the result was 0.87, 0.95, 1.60, 1.05, 0.77, 2.46 (mean 1.28; controls 0 of 18). Variant G61H/R100Q/A101L/S107D [GP_HC] gave 1.15, 1.24, 1.46, 1.51, 1.84, 0.88 (mean 1.35; controls 0 of 18).

With T28D/R100Q/A101T/S107R [GP_Gen] the result was 0.83, 0.58, 0.47, 0.11, 0.57, 0.23 (mean 0.46; controls 0 of 18). Variant T28D/F59S/A101L [Ctrl] gave 0.51, 0.17, -0.03, 0.31, 0.19, 0.36 (mean 0.25; controls 0 of 18). For T28S/R56M/K65D/G99L/T104L [Ctrl], the assay gave nd, nd, nd, nd, nd, nd (controls 0 of 18). With G26P/T28D/G61A/R100N [GP_Gen] the result was nd, 2.45, 2.34, nd, nd, 2.72 (mean 2.50; controls 0 of 18). With T28D/S31E/G103W/S107Q [GP_HC] the result was nd, nd, nd, nd, nd, nd (controls 0 of 18). Variant T28S/S31E/G61Y/A101F [GPLM_HC] gave nd, nd, nd, nd, nd, nd (controls 0 of 18). For R56S/D62P [Ctrl], the assay gave nd, nd, nd, nd, nd, nd (controls 0 of 18).

Variant T28H/G61D/R100K [GPLM_Gen] gave 1.90, 2.38, 2.02, 2.35, 3.02, nd (mean 2.34; controls 0 of 18). Variant G61D/R100A/A101E [GP_HC] gave 0.59, 0.90, 0.71, 0.30, 0.48, 0.80 (mean 0.63; controls 0 of 18).

A selection of 6 entries from above:

T28E/R100S/A101E/S107T [GP_Gen]: -0.52, nd, -0.13, nd, nd, 0.03 (mean -0.21; controls 0 of 18).
T28S/G61A/R100N/S107A [GPLM_Gen]: 0.27, 0.25, 0.18, 0.43, 0.31, 0.46 (mean 0.32; controls 1 of 18).
T28D/F59S/A101L [Ctrl]: 0.51, 0.17, -0.03, 0.31, 0.19, 0.36 (mean 0.25; controls 0 of 18).
T28Q/F59A/R100Q [GP_Gen]: 0.57, -0.22, -0.13, -0.86, 0.04, -0.07 (mean -0.11; controls 2 of 18).
L29V/S31E/K65S/S107Q [Ctrl]: nd, nd, 1.09, nd, 1.92, nd (mean 1.50; controls 0 of 18).
T28V/G61A/R100K/A101T [GPLM_Gibbs]: 0.66, 0.91, 0.76, 1.26, 0.79, 1.72 (mean 1.02; controls 0 of 18).

The range of this assay differs from that of the first round, and the authors advise against merging the two. Where one sequence has several entries in the source, the replicates are listed entry by entry, parted by semicolons. The authors' rule: three or more of the six replicates give a measured affinity, fewer mean a poor binder. The parent sequence was in this pool as ten entries: three were never detected, three once, and four in most replicates, with averages from 0.34 to 2.37.

Values reported by Li et al. 2023, doi:10.1038/s41467-023-39022-2 (FLAb copy).